Yeast mating assay 2: variants of the scFv Ab-95

From the AlphaSeq antibody data of Engelhart et al. 2022 (doi:10.1038/s41597-022-01779-4), copy in the FLAb collection.

The target is the same throughout: PDVDLGDISGINAS, from the HR2 region of SARS-CoV-2 spike.

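Library AAYL52 holds single substitutions and randomly drawn double and triple substitutions in the CDRs. The scFvs were displayed on barcoded MATa yeast, the peptide on MATalpha yeast. Binding brings cells together so that they mate, and sequencing counts the barcode pairs among the diploids. Scores were corrected for input abundance and mapped to Kd with protein pairs of known affinity run in the same pool. Mating was done three times.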

Parent: Ab-95, a human scFv built as VH, three GGGGS repeats, VL. Only the CDRs of the light chain vary.
VH: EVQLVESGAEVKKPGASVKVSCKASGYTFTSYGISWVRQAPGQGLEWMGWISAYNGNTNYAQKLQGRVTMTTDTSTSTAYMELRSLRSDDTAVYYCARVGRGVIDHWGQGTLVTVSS
VL: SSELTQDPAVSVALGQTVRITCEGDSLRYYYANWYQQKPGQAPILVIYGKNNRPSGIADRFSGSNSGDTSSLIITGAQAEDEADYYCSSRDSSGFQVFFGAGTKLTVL

Positions count from residue 1 of the parent VL; R28N puts N in place of R. Every variant below is changed at R28 of the VL (sequential numbering). Numbers give log10(Kd / nM), so 0 is 1 nM and 3 is 1 µM. Smaller is tighter. An entry "nd" has no value in the source: the pair was not observed among the diploids in that replicate. This suggests poor binding but is not conclusive. Empty control strains, which show no peptide, gave a signal in 28% of pairings with library AAYL52; the median was 3.91 and 95% of these signals were weaker than 2.90. No background was subtracted. For each scFv, signals with the empty controls are counted beside the result.

* R28N+N33C+F95P = nd, nd, 3.91 (controls 1 of 9)
* R28G+N33P+S92P = nd, nd, 4.40 (controls 1 of 9)
* R28T+Y30N+P54I = 1.49, 1.32, 0.82 (controls 1 of 9)
* L27E+R28A+Y30H = nd, nd, nd (controls 0 of 9)
* R28I = 2.26, 2.57, 2.16 (controls 2 of 9)
* R28G+S55N+S89T = 2.09, 1.89, 2.30 (controls 4 of 9)
* E23P+R28V = nd, nd, nd (controls 3 of 9)
* R28A+N51Y = nd, nd, nd (controls 2 of 9)
* R28S+N51Y+N52T = 2.86, 2.69, 2.52 (controls 4 of 9)
* R28N+S55H+S93Q = 2.91, 2.62, 3.22 (controls 2 of 9)
* L27H+R28Q+Y30D = 2.24, 2.65, 2.30 (controls 2 of 9)
* D25N+R28G+G94M = 3.28, 3.29, 2.92 (controls 3 of 9)
* D25T+L27N+R28N = 2.83, 2.58, 2.45 (controls 4 of 9)
* E23C+R28E+Y29R = 3.02, 2.33, 2.18 (controls 2 of 9)
* R28V+G94D+F98Y = nd, 4.31, nd (controls 1 of 9)
* R28M+N33H+N52R = 4.37, nd, nd (controls 0 of 9)
* R28K+Y31S+F95L = 2.25, 2.49, 2.46 (controls 3 of 9)
* R28T+P54C+S92N = 4.10, 3.11, nd (controls 2 of 9)
* S26Q+R28L+R90L = nd, nd, nd (controls 3 of 9)
* S26Y+R28L+S55C = 2.09, 2.30, 1.75 (controls 2 of 9)
* R28S+G94S+F98Q = 3.93, 4.07, 4.08 (controls 4 of 9)
* G24A+R28L+S89L = 5.53, 3.73, 4.37 (controls 1 of 9)
* R28N+G49S+P54E = 3.18, 3.58, 4.33 (controls 3 of 9)
* S26D+R28V+Q96I = 3.16, 3.49, 3.21 (controls 4 of 9)
* R28D+D91C+F95N = 2.47, 3.03, 2.21 (controls 2 of 9)
* D25W+R28H+S89H = 2.92, nd, nd (controls 2 of 9)
* R28P+A32C+Q96W = 3.59, nd, nd (controls 4 of 9)
* D25M+R28Y+R90P = nd, nd, nd (controls 1 of 9)
* R28C+Y31I = nd, 5.49, nd (controls 4 of 9)
* S26K+R28P+Y30R = 3.07, 2.71, 3.50 (controls 4 of 9)
* S26V+R28I+N52M = 4.23, nd, nd (controls 0 of 9)
* L27P+R28L+S55I = 2.76, 2.41, 3.76 (controls 5 of 9)
* R28S+S88F+G94D = 3.28, nd, 3.58 (controls 1 of 9)
* D25E+R28K+N33V = 4.01, nd, 4.35 (controls 7 of 9)
* R28I+S55P+G94C = 3.76, 4.67, nd (controls 2 of 9)
* R28Y+N33A+F95L = 4.62, nd, nd (controls 3 of 9)
* D25R+R28I+S92Q = 3.53, 3.03, 3.38 (controls 3 of 9)
* G24P+R28S+Q96W = nd, 3.83, 4.44 (controls 2 of 9)
* R28F+R53L+R90N = nd, nd, 3.95 (controls 1 of 9)
* R28V+K50G+Q96C = nd, nd, nd (controls 4 of 9)
* R28N+S93R = 1.75, 1.78, 1.81 (controls 2 of 9)
* D25I+L27K+R28P = 2.60, 2.61, 2.03 (controls 4 of 9)
* G24I+R28S+N52K = 1.44, 1.22, 0.73 (controls 6 of 9)
* R28G+D91I+S92T = 2.38, 2.12, 1.91 (controls 0 of 9)
* R28A+S88V+F98G = 2.99, 4.31, 3.86 (controls 2 of 9)
* R28T+Y31E+N33S = 2.59, 2.38, 3.00 (controls 0 of 9)
* R28K+S55Y+Q96D = 2.58, 2.12, 2.30 (controls 0 of 9)
* R28S+Y31D+R90M = 1.57, 1.42, 1.11 (controls 1 of 9)

Repeated from above, the 8 best binders with a signal in all replicates:

changes	log10 Kd (nM) by replicate	signal with controls
G24I+R28S+N52K	1.44, 1.22, 0.73	6 of 9
R28T+Y30N+P54I	1.49, 1.32, 0.82	1 of 9
R28S+Y31D+R90M	1.57, 1.42, 1.11	1 of 9
R28N+S93R	1.75, 1.78, 1.81	2 of 9
S26Y+R28L+S55C	2.09, 2.30, 1.75	2 of 9
R28G+S55N+S89T	2.09, 1.89, 2.30	4 of 9
R28G+D91I+S92T	2.38, 2.12, 1.91	0 of 9
R28I	2.26, 2.57, 2.16	2 of 9